Protein sequences, listed by entry. Tags and fused reporters are not part of them. Lines headed by an entry give the natural chain unless they say otherwise; changes in a name come on top.
UniProt Q06187, whole entry: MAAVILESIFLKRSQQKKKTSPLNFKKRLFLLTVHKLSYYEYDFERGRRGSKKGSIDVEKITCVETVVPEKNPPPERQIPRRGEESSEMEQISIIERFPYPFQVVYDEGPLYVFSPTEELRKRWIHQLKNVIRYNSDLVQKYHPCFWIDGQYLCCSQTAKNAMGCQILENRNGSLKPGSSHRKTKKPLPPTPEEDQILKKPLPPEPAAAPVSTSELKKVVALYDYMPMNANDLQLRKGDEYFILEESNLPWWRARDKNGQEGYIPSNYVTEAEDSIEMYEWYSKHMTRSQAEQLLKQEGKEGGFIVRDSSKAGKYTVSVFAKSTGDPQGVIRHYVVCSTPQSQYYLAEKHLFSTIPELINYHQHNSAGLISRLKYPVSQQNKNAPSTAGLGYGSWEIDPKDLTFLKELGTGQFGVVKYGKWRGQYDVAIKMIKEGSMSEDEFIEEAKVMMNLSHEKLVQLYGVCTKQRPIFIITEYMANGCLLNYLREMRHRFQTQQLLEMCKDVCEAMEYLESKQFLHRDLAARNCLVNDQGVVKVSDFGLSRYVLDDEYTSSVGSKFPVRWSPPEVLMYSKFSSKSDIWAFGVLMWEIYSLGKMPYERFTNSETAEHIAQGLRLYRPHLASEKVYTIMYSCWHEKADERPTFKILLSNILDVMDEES
UniProt Q06187, whole entry C481S: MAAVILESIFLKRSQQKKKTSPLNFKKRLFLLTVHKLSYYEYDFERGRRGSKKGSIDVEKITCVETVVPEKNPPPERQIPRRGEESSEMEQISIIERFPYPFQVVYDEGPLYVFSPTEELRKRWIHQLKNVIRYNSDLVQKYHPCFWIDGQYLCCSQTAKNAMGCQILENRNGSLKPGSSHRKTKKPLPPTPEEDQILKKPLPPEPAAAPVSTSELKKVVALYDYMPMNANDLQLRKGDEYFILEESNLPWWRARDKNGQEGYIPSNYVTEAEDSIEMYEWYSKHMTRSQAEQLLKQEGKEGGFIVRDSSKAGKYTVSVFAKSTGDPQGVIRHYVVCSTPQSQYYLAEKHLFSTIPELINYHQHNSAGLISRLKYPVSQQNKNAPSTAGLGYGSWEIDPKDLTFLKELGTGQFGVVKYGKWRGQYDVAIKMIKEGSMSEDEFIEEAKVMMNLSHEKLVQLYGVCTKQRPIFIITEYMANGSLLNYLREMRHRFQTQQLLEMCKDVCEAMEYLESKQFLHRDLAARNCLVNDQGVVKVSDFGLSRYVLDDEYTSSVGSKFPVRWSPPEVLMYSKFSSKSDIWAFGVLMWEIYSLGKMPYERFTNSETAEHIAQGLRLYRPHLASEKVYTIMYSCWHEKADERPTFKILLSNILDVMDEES

In patent publication EP4825855A1, “COMPOUND CONTAINING PYRAZOLE RING AND BICYCLIC HETEROARYL GROUP, PHARMACEUTICAL COMPOSITION THEREOF AND USE THEREOF” (dated 2026):

Legend:
BTK(C481S) kinase = BTK(C481S) kinase (Homo sapiens, UniProt Q06187, C481S); experiment: Inhibitory activity against BTK(C481S) kinase; settings: read-out: BTK(C481S) kinase inhibition IC50(nM )
Method: (§1) BTK(C481S) kinase solution (concentration: 0.006 ng/µL) was added to assay wells at 6 µL/well, and different compounds dissolved in DMSO were added to the assay wells separately using a nanoliter pipettor, such that the final concentrations of the compounds were 1000 nM to 0.244 nM. The wells were set in duplicate, and a control well was set. After a 30-min incubation of the above system, ATP (concentration: 50 µM) was mixed with ULight-poly GT substrate (manufacturer: PerkinElmer, concentration: 0.5 µM) in a ratio of 1:1, and the mixture was added to the assay wells at 4 µL/well. The resulting mixture was left to react at room temperature for 2 h, and then 5 µL of EDTA was added to terminate the reaction, followed by the addition of 5 µL of a detection antibody (manufacturer: PerkinElmer, concentration: 8 nM). The mixture was incubated at room temperature for 1 h. The assay was performed using a PerkinElmer Envision multifunctional microplate reader (excitation: 320 nm, emission: 615 nm/665 nm), and IC50 was calculated by four-parameter fitting. The test results are shown in Table 3, where A represents: the IC50 value ≤ 10 nM.

BTK(WT) kinase = BTK(WT) kinase (Homo sapiens, UniProt Q06187); experiment: Inhibitory activity against BTK(WT) kinase; settings: read-out: BTK(WT) kinase inhibition IC50(nM )
Method: as §1, with “BTK” for “BTK(C481S)”, “0.003” for “0.006”, “fitting.” for “fitting. The test results are shown in Table 3, where A represents: the IC50 value ≤ 10 nM.”

OCI-LY10 cells [1] = experiment: Inhibitory activity against OCI-LY10 cell proliferation (CCK-8); settings: 72 h incubation
Method: OCI-LY10 cells in a good growth state were collected into a centrifuge tube, adjusted to a cell density of 9 × 10^4 cells/mL using an assay medium (1640 + 10% FBS), and seeded onto a 96-well plate (100 µL/well). The cells were incubated overnight in a cell incubator. Compounds were added using a nanoliter pipettor such that the final concentrations of the compounds were 1000 nM to 1.64 nM (the addition was performed in duplicate). Meanwhile, a control was set. After 72 h of incubation in the cell incubator, the assay reagent CCK-8 (manufacturer: Dojindo Laboratories; 10 µL/well) was added. After 4 h of incubation in the cell incubator, the absorbance values were measured at 450 nm on a PerkinElmer Envision microplate reader. A four-parameter analysis was performed, a dose-response curve was fitted, and IC50 was calculated. Table 1. Inhibitory activity against OCI-LY10 cell proliferation

[2] = In vitro stability in liver microsomes (mouse); settings: 37 °C, NADPH
Method: (§2) 300 µL of the final incubation system contains 30 µL of liver microsomes (protein concentration: 0.15 mg/mL), 30 µL of NADPH + MgCl2, 3 µL of the test compound (in acetonitrile), and 237 µL of PBS buffer (pH 7.4). The proportion of the organic solvent (acetonitrile) was 1%. Samples were prepared in duplicate of 0.3 mL for each species. Tubes each containing 270 µL of a mixed solution of substrate and enzyme and NADPH were pre-incubated at 37 °C for 5 min. 30 µL of NADPH + MgCl2 was added and the mixture was mixed. 50 µL of the mixture was taken at 0 min, 15 min, 30 min, and 60 min, and 300 µL of glacial acetonitrile containing an internal standard was added to terminate the reaction.
(§3) 300 µL of glacial acetonitrile containing an internal standard (20 ng/mL diazepam) was added to 50 µL of the incubated sample for precipitation. The mixture was vortexed for 5 min, and centrifuged (12,000 rpm, 4 °C) for 10 min. 75 µL of supernatant was taken and diluted with 75 µL of ultrapure water. After being homogeneously mixed, 0.5 µL of the resulting sample was injected for analysis.

[3] = In vitro stability in liver microsomes (human); settings: 37 °C, NADPH
Method: as §2, §3

OCI-LY10 cells [4] = experiment: Pharmacodynamic evaluation in OCI-LY10 mouse subcutaneous xenograft tumor model; settings: day 23 of administration, intragastric once daily, 20 mpk or 40 mpk
Method: SPF-grade female NOD-SCID mice (source: Shanghai Lingchang Biotech Co., Ltd.) were subcutaneously inoculated at the right axilla with OCI-LY10 cells at 1 × 10^7 cells/mouse. When the mean tumor volume reached about 180 mm^3, the animals were grouped.
The day of grouping was defined as day 0, and intragastric administration was performed once daily from day 1 at a dose of 20 mpk or 40 mpk. The tumor volume was measured twice every week, and meanwhile, the mice were weighed, and the data were recorded. The general behavior of the mice was observed and recorded every day. After the experiment was completed, the tumors were extracted, weighed, and photographed.
The detection parameters and the calculation formulas are as follows: Tumor volume TV (mm^3) = 1/2 × (a×b^2), [formula] where a represents the long diameter of the tumor, and b represents the short diameter of the tumor. Relative tumor volume RTV = TVt /TV0 , [formula] where TV0 represents the tumor volume on day 0, and TVt represents the tumor volume at each measurement. Relative tumor proliferation rate T/C (%) = (TRTV/CRTV) × 100%, [formula] where TRTV represents RTV of the treatment group, and CRTV represents RTV of the vehicle control group. Tumor volume inhibition rate TGI (TV)(%), TGI (%) = [1−(T−T0)/(C−0)] × 100%, [formula] where T represents the mean tumor volume of each treatment group; T0 represents the mean tumor volume of each treatment group on d0; C represents the mean tumor volume of the control group; C0 represents the mean tumor volume of the control group on d0. Tumor weight inhibition rate TGI (TW)(%), TGI (%) = (1−TWt/TWc) × 100%, [formula] where TWt represents the tumor weight of each treatment group; TWc represents the tumor weight of the control group. Weight change rate WCR (%) = (Wtt−Wt0)/Wt0 × 100%, [formula] where Wt0 represents the body weight of the mouse on day 0, and Wtt represents the body weight of the mouse at each measurement.

[5] = In vivo pharmacokinetic study in mice; settings: ICR mice, 5mg/kg
Method: ICR mice weighing 20-25 g were randomly grouped after 3-5 days of acclimatization, with 6 mice in each intravenous injection group and 3 mice in each intragastric administration group. The mice were intragastrically (IG) and intravenously (IV) administered the compound solutions of the present application at a dose of 5 mg/kg. Blood collection time points for intragastric administration were 30 min, 2 h, 8 h, and 24 h, and blood collection time points for intravenous injection were 0.083 h (5 min), 0.25 h (15 min), 1 h, 2 h, 4 h, 8 h, and 24 h. Blood was collected from the orbit to prepare plasma samples to be tested. 30 µL of each of the plasma samples to be tested and a standard curve sample were taken, and an acetonitrile solution containing an internal standard was added. Supernatants were obtained by protein precipitation, diluted, and then assayed by LC/MS/MS.

Structure (SMILES)	IC50 (BTK(C481S) kinase) [nM]	IC50 (BTK(WT) kinase) [nM]	IC50 (OCI-LY10 cells [1]) [nM]	Mouse liver microsome (Remaining amount % at 60 min) [2] [%]	Human liver microsome (Remaining amount % at 60 min) [3] [%]	tumor volume inhibition rates (OCI-LY10 cells [4])	tumor weight inhibition rates (OCI-LY10 cells [4])	AUC(0-t) ([5]; IG) [ng·h/mL]	Cmax ([5]; IG) [ng/mL]	AUC(0-t) ([5]; IV) [ng·h/mL]	CL ([5]; IV) [mL/min/kg]	T1/2 ([5]; IV) [h]	Vss ([5]; IV) [L/kg]
COC(c1nc(Nc2cnn(-c3ccc(CNC(=O)c4cc(F)cc5cccnc45)cc3)c2C(N)=O)ccc1N1CCC(N(C)C)CC1)C(F)(F)F (centres unmarked)	< 10	< 10	< 10	≥50	≥60	–	–	–	–	–	–	–	–
COC(c1nc(Nc2cnn(-c3ccc(CNC(=O)c4cc(F)cc5cccnc45)cc3)c2C(N)=O)ccc1NC1CCN(C)CC1)C(F)(F)F (centres unmarked)	< 10	< 10	< 10	≥50	≥60	–	–	–	–	–	–	–	–
COc1ccc(F)c2ccnc(NCc3ccc(-n4ncc(Nc5ccc(N6CCC(N(C)C)CC6)c(C(OC)C6CC6)n5)c4C(N)=O)cc3)c12 (racemic)	< 10	< 10	< 10	≥50	≥60	–	–	–	–	–	–	–	–
COC(c1nc(Nc2cnn(-c3ccc(CNC(=O)c4cc(F)cc5cccnc45)cc3)c2C(N)=O)ccc1N1CCC(N(C)C)CC1)C1CC1 (centres unmarked)	< 10	< 10	< 10	≥50	≥60	–	–	–	–	–	–	–	–
CN1CCC(Nc2ccc(Nc3cnn(-c4ccc(CNC(=O)c5cc(F)cc6cccnc56)cc4)c3C(N)=O)nc2C(O)C2CC2)CC1 (centres unmarked)	< 10	< 10	< 10	≥50	≥60	–	–	–	–	–	–	–	–
COc1ccc(F)c2ccnc(NCc3ccc(-n4ncc(Nc5ccc(NC6CCC(N(C)C)CC6)c(C(O)C6CC6)n5)c4C(N)=O)cc3)c12 (single isomer, unassigned)	< 10	< 10	< 10	≥50	≥60	–	–	–	–	–	–	–	–
COc1ccc(F)c2ccnc(NCc3ccc(-n4ncc(Nc5ccc(N6CCC(N(C)C)CC6)c(C(O)C(F)(F)F)n5)c4C(N)=O)cc3)c12 (centres unmarked)	< 10	< 10	< 10	≥50	≥60	–	–	–	–	–	–	–	–
COC(c1nc(Nc2cnn(-c3ccc(CNC(=O)c4cc(F)cc5cccnc45)cc3)c2C(N)=O)ccc1NC1CCN(C)CC1)C1CC1 (centres unmarked)	< 10	< 10	< 10	≥50	≥60	–	–	–	–	–	–	–	–
NC(=O)c1c(Nc2ccc(N3CCN(C4COC4)CC3)c(C(O)C(F)(F)F)n2)cnn1-c1ccc(CNC(=O)c2cc(F)cc3cccnc23)cc1 (single isomer, unassigned)	–	–	< 10	–	–	greater than 95%	greater than 92%	2934	701	4705	17.5	4.24	3.015
COc1ccc(F)c2ccnc(NCc3ccc(-n4ncc(Nc5ccc(N6CCN(C7COC7)CC6)c(C(O)C(F)(F)F)n5)c4C(N)=O)cc3)c12 (single isomer, unassigned)	< 10	< 10	–	–	–	greater than 95%	greater than 92%	10930	707	13855	5.08	9.54	3.779
CCC(OC)c1nc(Nc2cnn(-c3ccc(CNC(=O)c4cc(F)cc5cccnc45)cc3)c2C(N)=O)ccc1N1CCC(N(C)C)CC1 (centres unmarked)	< 10	< 10	–	≥50	≥60	–	–	–	–	–	–	–	–
CN(C)C1CCC(Nc2ccc(Nc3cnn(-c4ccc(CNC(=O)c5cc(F)cc6cccnc56)cc4)c3C(N)=O)nc2C(O)C(F)(F)F)CC1 (single isomer, unassigned)	< 10	< 10	< 10	≥50	≥60	–	–	–	–	–	–	–	–
NC(=O)c1c(Nc2ccc(N3CCN(C4CC4)CC3)cn2)cnn1-c1ccc(CNC(=O)c2cc(F)cc3cccnc23)cc1	< 10	< 10	–	–	–	greater than 95%	greater than 92%	4275	1874	9322	8.92	3.17	1.12
COc1ccc(F)c2ccnc(NCc3ccc(-n4ncc(Nc5ccc(NC6CCC(N(C)C)CC6)c(C(O)C(F)(F)F)n5)c4C(N)=O)cc3)c12 (centres unmarked)	< 10	< 10	< 10	≥50	≥60	–	–	–	–	–	–	–	–
